Details: rat, in vivo, po

Volume of distribution at steady state (Vd): 23.92 ± 8.40 L
Substance: N-(diaminomethylene)-4-methylbenzenesulfonamide

— paper PMC12297955, “Comparative Study: Biguanide-, Sulfonamide-, and Natural Agent-Based Interventions in an In Vivo Experimental Diabetes Model” (Medicina, 2025)
